From patent US5049694A, “Pharmaceutical composition having relaxing activity which contains a nitrate ester as active substance” (Cedona Pharmaceuticals B.V., priority 1988, dated 1991)

What was measured:
[1] = tested on: contracted strips of the rats' arota; assay: relaxing potency in vitro on phenylefrine-contracted strips of rat aorta; assay type: cell-based, rat (male Wistar); settings: read-out: EC50 (concentration with which relaxation took place up to 50% of the contraction induced by 10^-7 M phenylefrine); rat thoracal aorta strips, contracted with 10^-7 M phenylefrine, cumulative concentrations, 37° C.
Description: The relaxing potency of the compounds as described is tested in vitro on contracted strips of the rats' arota. Male Wistar rates (200-220 g) are killed by decapitation. The thoracal aorta is removed and is helically cut into strips (length: ±10 mm, width: ±2 mm; 4 strips per rat).
The strips are suspended in organ baths filled with 20 ml of Krebs' medium with a constant temperature of 37° C. passing through O2 /CO2 (95/5) and subsequently for 2 h equilibrated under an isotonic load of 500 mg. The medium is renewed every 20 minutes.
After equilibration contraction takes place by addition of 10^-7M phenylefrine to the medium. After reaching the maximal contraction the composition with the organic nitrate ester to be tested in cumulative concentration steps is relaxed.
The degree of relaxation is expressed as a percentage of the maximal contraction (=100%) reached with 10^-7 M phenylefrine. The relaxing potency of the tested compounds is expressed as the EC50 : the concentration with which relaxation took place up to 50% of the contraction induced by 10^-7 M phenylefrine. From a number of compounds the EC50 -values have been stated in Table 1. For comparison the EC50 -values of glyceryltrinitrate and isosorbidedinitrate have also been included.

[2] = chronical administration, clinical; cited from earlier work
heart = settings: therapeutical use; cited from earlier work

| Compound | EC50 [1] [nM] | development of tolerance [2] | need of oxygen to the heart (heart) | post-load of the heart (heart) | pre-load of the heart (heart) |
| --- | --- | --- | --- | --- | --- |
| O=[N+]([O-])OC1CCCCC1O[N+](=O)[O-] (stereo not shown) | 3000 | – | – | – | – |
| O=[N+]([O-])O[C@H]1CO[C@H]2[C@@H]1OC[C@H]2O[N+](=O)[O-] | 560 | development of so-called tolerance | lower need of oxygen to the heart | also affected, be it to a lower extent | diminish especially the pre-load of the heart |
| O=[N+]([O-])OCCCCCO[N+](=O)[O-] | 35 | – | – | – | – |
